# High-throughput results deposited in PubChem BioAssay by National Center for Advancing Translational Sciences (NCATS).
# miR-21 reporter: raises the signal of a miR-21 reporter; Potency, µM (doses to about 38.3 µM), inactives show top-dose reporter change, positive = more light; HeLa miR-21 FLuc reporter, luciferase, 48 h; AID 2288; 340,000 tested, under 10 active; active = well fitted rising curve with a large enough effect; inconclusive = small, poorly fitted or top-dose-only effect; inactive = no such curve, though single readings can be large or run the other way;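 further: % of control where 0% means no effect; miR-21 action dims this reporter so a rising signal means less miR-21 action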
#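 Using DMEM plus 10% FBS, HeLa miR-21-FLuc cells are incubated with test compounds (final up to about 40uM) for 48 hours; firefly luciferase signal is then imaged following reagent-mediated lysis.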
# BRCA1 expr up: activators of BRCA1 expression | MCF7-BRCA1-FFLuc reporter, luminescence, 48 h; response scale: scaled: vehicle 0%, 10 µM genistein 100% | Potency, µM (titrated, usually from 46.1 µM), for the others: top-dose activation, usual class: activators | 380,000 compounds, 1.1% hits; note: potency is the fitted concentration of half-maximal effect; nearly all actives have a fitted effect of over 80% in size
#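 Activators of BRCA1 expression were detected as increased firefly luciferase luminescence in engineered MCF7 cells after 48 h compound incubation. Signals were scaled to genistein 10 microM as full activation.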
# p53 reactivator: mutant p53 re-activation in reporter cells; H1299 p53-A138V BP100-luciferase reporter, luminescence, 24 h; Potency, µM (highest dose often 92.2 µM), inactives show top-dose activity change, positive = activation, hits mostly activators; 320,000 compounds, 0.063% hits; AID 504706; note: potency is the fitted concentration of half-maximal effect; % of control where 0% means no effect; nearly all actives have a fitted effect of over 45% in size
#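 H1299 (p53-null), stable ts p53-A138V + BP100-Luc; 1000 cells/well, Opti-MEM/10% FBS; cpd 4 pt, 1:5; 24 h, 37 deg C, 5% CO2; detection reagent 10 min RT; luminescence.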
# Apoferritin bind: binds horse apoferritin like a general anesthetic; P02791; apoferritin/1-aminoanthracene competitive binding, fluorescence; Potency, µM (highest dose often 77.5 µM), without a hit: top-dose activity change, negative = displacement, usual class: inhibitors; 350,000 compounds, 0.074% hits; AID 485281; note: potency is the fitted concentration of half-maximal effect; % is set by controls: 0 for no effect and ±100 for the full control effect; nearly all actives have a fitted effect of over 20% in size
#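 Apoferritin-based anesthetic binding model; compound displacement of fluorescent 1-AMA measured as endpoint fluorescence after 10 minutes at room temperature, scaled to free-ligand and complex controls.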
# The depositor's hits bear a star; u = inconclusive; x = no result. Compounds with a hit are over-represented: about 1.1% of the library has one in this group of screens. Unless noted, calls come from the whole dose curve; as a rule, active = well fitted curve in the direction sought with a large enough effect; inconclusive = small, poorly fitted or top-dose-only effect, or another doubt; inactive = no such curve, though single readings can be large; an effect the other way counts as inactive or inconclusive.
# Start of the data: the first five records, to show the layout:
cpd | Molecule | Apoferritin bind | p53 reactivator
1 | CCN(CC)c1ccc(NC(=O)/C=C\c2ccccc2Cl)cc1 | u | 11.7%
2 | O=C(C1COc2ccccc2O1)N1CCc2ccccc21 (stereo unspecified) | u | 8.2%
3 | O=C(C1COc2ccccc2O1)N1CCCC1 (stereo unspecified) | -15.3% | 0.0%
4 | CC(C)(C)c1ccc(-c2nc(SCC(=O)Nc3ccccc3F)n3[nH]c(=O)cc3n2)cc1 | u | x
5 | CC1=Nn2c(nc3sc4c(c3c2=O)CCCC4)SC1 | -3.8% | 18.2%

cpd | BRCA1 expr up | miR-21 reporter
1 | 3.16µM* | -48.2%
2 | 11.2µM* | -44.0%
3 | 7.2% | -11.4%
4 | x | -14.7%
5 | 7.08µM* | -33.0%

# The listing, from the start:
cpd | Molecule | Apoferritin bind | p53 reactivator
1 | CCN(CC)c1ccc(NC(=O)/C=C\c2ccccc2Cl)cc1 | u | 11.7%
2 | O=C(C1COc2ccccc2O1)N1CCc2ccccc21 (stereo unspecified) | u | 8.2%
3 | O=C(C1COc2ccccc2O1)N1CCCC1 (stereo unspecified) | -15.3% | 0.0%
4 | CC(C)(C)c1ccc(-c2nc(SCC(=O)Nc3ccccc3F)n3[nH]c(=O)cc3n2)cc1 | u | x
5 | CC1=Nn2c(nc3sc4c(c3c2=O)CCCC4)SC1 | -3.8% | 18.2%
6 | O=c1c2c3c(sc2nc2n1CCCCC2)CCCC3 | -15.5% | u
7 | Nc1nc2sc3c(c2c(=O)s1)CCCC3 | u | 16.7%
8 | Cc1ccc(OCC(=O)Nc2ccc3nc(SCC(=O)N4CCCC4)sc3c2)cc1 | -5.7% | x
9 | CC(C(=O)NCc1ccc(Cl)cc1)n1ccc2cc(S(=O)(=O)N3CCCC3)ccc21 (stereo unspecified) | 38.5% | x
10 | COc1ccc(-c2nnc(SCC(=O)Nc3ccc(F)cc3)s2)cc1 | -5.5% | x
11 | O=C(O)CC1(CC(=O)Nc2ccc(C(F)(F)F)cc2)CCCC1 | -10.3% | -0.9%
12 | CC(C)(C)c1ccc(NC(=O)CC2(C(F)(F)F)OCCO2)cc1 | u | u
13 | CCN(CC(=O)Nc1ccc2c(c1)OCCO2)CC(=O)Nc1ccc(C)c(S(=O)(=O)N(C)C)c1 | x | -2.6%
14 | Cn1cc(Cl)c(C(=O)Nc2nc3ccc([N+](=O)[O-])cc3s2)n1 | -4.5% | -1.0%
15 | Cn1cc(Cl)c(C(=O)Nc2nc3ccc(Cl)cc3s2)n1 | -12.1% | u

cpd | BRCA1 expr up | miR-21 reporter
1 | 3.16µM* | -48.2%
2 | 11.2µM* | -44.0%
3 | 7.2% | -11.4%
4 | x | -14.7%
5 | 7.08µM* | -33.0%
6 | 4.47µM* | -54.7%
7 | 11.2µM* | -103.9%
8 | x | -3.4%
9 | x | 19.3%
10 | x | -29.7%
11 | 3.3% | -3.4%
12 | 3.55µM* | -49.3%
13 | -15.2% | x
14 | 48.7% | -8.9%
15 | 12.6µM* | -42.9%

# More entries:
cpd | Molecule | Apoferritin bind | p53 reactivator
16 | Cc1ccc(C)c(N2CCN(C(=O)Nc3cn(CC(C)C)c(=O)c4ccccc34)CC2)c1 | -5.6% | x
17 | CC1OC1c1ccc(-c2ccc(C3OC3C)cc2)cc1 (stereo unspecified) | x | x
18 | COc1ccc2nc(Nc3nc(CSc4nc5ccccc5[nH]4)cc(=O)[nH]3)nc(C)c2c1 | -3.8% | 39.8µM*
19 | Cc1cc([N+](=O)[O-])cnc1NC(C)c1ccccc1 (stereo unspecified) | 8.91µM* | 1.4%
20 | COc1ccc(N=C2S/C(=C\c3cc(C)n(C)c3C)C(=O)N2CC(C)C)cc1 | u | -8.4%
21 | CCOC(=O)CN1C(=O)S/C(=C/c2ccc(N3CCCCC3)o2)C1=O | -13.7% | u
22 | COC(=O)CN1C(=O)S/C(=C/c2ccc(N3CCCCC3)o2)C1=O | u | -8.5%
23 | CCn1c(C)cc(/C=C2/SC(=O)N(C(C)C(=O)OC)C2=O)c1C (stereo unspecified) | -1.7% | 12.2%
24 | COC(=O)CN1C(=O)S/C(=C/c2cc(C)n(C)c2C)C1=O | u | 11.0%
25 | CCCCc1ccc(NC(=O)COC(=O)c2ccccc2OCC(=O)Nc2ccc(Br)cc2)cc1 | x | x
26 | CC(C)c1ccc(N2C=Nc3ccc(C(C)C)cc3C2)cc1 | -16.9% | 4.6%
27 | C1=Nc2ccccc2CN1c1ccccc1 | -8.0% | u
28 | NC(=O)c1ccsc1NC(=O)c1ccc(S(=O)(=O)N2CCCC2)cc1 | -16.1% | 16.6%
29 | COc1ccc(Cn2ccc3nc(C)c(C(=O)Nc4cc(C)cc(C)c4)cc3c2=O)cc1 | -17.8% | x
30 | Cc1ccc(NC(CC(=O)c2ccccc2)C(=O)O)cc1Cl (stereo unspecified) | -5.4% | u

cpd | BRCA1 expr up | miR-21 reporter
16 | -21.2% | 25.4%
17 | 5.01µM* | x
18 | -74.9% | -9.9%
19 | -15.3% | 0.0%
20 | -42.9% | -16.9%
21 | -5.1% | -2.7%
22 | 10µM* | -11.8%
23 | 4.47µM* | -60.5%
24 | 12.6µM* | -54.8%
25 | 0.0% | x
26 | -1.0% | -4.0%
27 | 7.08µM* | -73.0%
28 | 12.6µM* | -11.1%
29 | x | 0.7%
30 | 26.8% | -57.1%

# Following part.
cpd | Molecule | Apoferritin bind | p53 reactivator
31 | O=C(CC(Nc1ccccc1)C(=O)O)c1ccccc1 (stereo unspecified) | u | u
32 | CCOC(=O)c1c(C)[nH]c(C)c1S(=O)(=O)N(C)CC(=O)Nc1cccc(C)n1 | -4.8% | -4.9%
33 | COc1cc(/C=C/c2cncc(/C=C/c3cc(OC)c(OC)c(OC)c3)c2)cc(OC)c1OC | x | x
34 | Nc1ccc(C(=O)OCc2nc3c(ccc4ccccc43)[nH]2)cc1 | -6.2% | u
35 | Nc1ccc(C(=O)OCc2nc3cc4ccccc4cc3[nH]2)cc1 | -0.8% | 0.9%
36 | Cc1nnc(SCC(=O)Nc2nsc(-c3ccc(C(C)(C)C)cc3)n2)s1 | u | u
37 | CCc1ccccc1NC(=O)N(C)CCc1c(C)nn(C)c1C | -17.2% | x
38 | O=C(c1ccccc1)c1cc2cc(Cl)ccc2[nH]1 | -4.9% | u
39 | COc1cccc(C(=O)c2cc3cc(Cl)ccc3[nH]2)c1 | -2.3% | x
40 | COc1ccc(NC(=O)N(C)C[C@H]2OCc3cnnn3CCCC(=O)N([C@H](C)CO)C[C@@H]2C)cc1 | x | x
41 | COc1ccc(N=Cc2nc(-c3ccccc3)oc2OC(=O)c2ccccc2)cc1 | 3.2% | u
42 | CCOC(=O)c1ccc(N=Cc2nc(-c3ccccc3)oc2OC(C)=O)cc1 | -16.1% | 4.1%
43 | CN(C)c1ccc(N=Cc2nc(-c3ccccc3)oc2OC(=O)c2cccc(Br)c2)cc1 | 7.0% | u
44 | CC(=O)Oc1oc(-c2ccccc2)nc1C=Nc1ccccc1 | -15.5% | -5.7%
45 | COc1ccc(-c2csc(NC3OC(=O)c4c3ccc(OC)c4OC)n2)cc1OC (stereo unspecified) | 5.4% | -9.2%

cpd | BRCA1 expr up | miR-21 reporter
31 | 11.2µM* | -59.0%
32 | 8.5% | -1.8%
33 | 13.8% | x
34 | 7.08µM* | -36.1%
35 | -0.2% | 10.5%
36 | 1.12µM* | -55.9%
37 | 0.2% | -15.2%
38 | 10µM* | -46.0%
39 | 76.6% | -34.6%
40 | 1.2% | x
41 | 6.31µM* | -66.9%
42 | 12.1% | -10.0%
43 | 3.16µM* | -65.8%
44 | -3.1% | -13.3%
45 | -55.3% | u

# (list continues)
cpd | Molecule | Apoferritin bind | p53 reactivator
46 | COc1ccc2c(c1OC)C(=O)OC2Nc1nc(-c2ccc([N+](=O)[O-])cc2)cs1 (stereo unspecified) | 0.0% | 19.7%
47 | Cc1cc(Oc2ccc(Cl)cc2Cl)nc(C#N)n1 | x | x
48 | C(=N\NCc1ccccc1)/c1ccc2ncccc2c1 | -7.9% | 9.9%
49 | C(=N\NCc1ccccc1)/c1ccc2nccnc2c1 | 1.0% | 7.3%
50 | O=c1c2ccccc2nnn1CSc1nnc2ccccn12 | -13.7% | u
51 | FC(F)Sc1ccc(Nc2ncnc3nc[nH]c23)cc1 | -10.1% | u
52 | Cc1cc(C)cc(Nc2ncnc3nc[nH]c23)c1 | -2.2% | 6.7%
53 | CCCCOC(=O)c1ccc(Nc2ncnc3nc[nH]c23)cc1 | -7.5% | 19.4%
54 | CCCCOC(=O)c1ccc(NC(C)=O)cc1 | u | u
55 | Cc1cccnc1NC(=S)Nc1ccc(F)cc1F | -9.1% | 8.3%
56 | Cc1ccc(C)c(NC(=S)Nc2ncccc2C)c1 | -17.1% | 4.1%
57 | Cc1ccc(Cl)cc1NC(=O)C(NS(=O)(=O)c1cccc2nsnc12)c1ccccc1 (stereo unspecified) | -3.5% | x

cpd | BRCA1 expr up | miR-21 reporter
46 | 12.6µM* | -34.5%
47 | -9.5% | x
48 | 32.9% | -35.2%
49 | 4.47µM* | -24.1%
50 | 5.62µM* | -42.5%
51 | 3.55µM* | -43.4%
52 | 25.6% | -36.1%
53 | 10µM* | -36.0%
54 | 48.5% | -35.1%
55 | u | -34.2%
56 | 7.94µM* | -58.1%
57 | x | 3.3%
